# Measured values reported in ChEMBL document CHEMBL1154078, “Synthesis of novel purine nucleosides towards a selective inhibition of human butyrylcholinesterase” (Bioorg Med Chem, 2009).
# Sequences of proteins named here, by UniProt entry; tags and fusion partners are left off.
# UniProt P06276, whole entry: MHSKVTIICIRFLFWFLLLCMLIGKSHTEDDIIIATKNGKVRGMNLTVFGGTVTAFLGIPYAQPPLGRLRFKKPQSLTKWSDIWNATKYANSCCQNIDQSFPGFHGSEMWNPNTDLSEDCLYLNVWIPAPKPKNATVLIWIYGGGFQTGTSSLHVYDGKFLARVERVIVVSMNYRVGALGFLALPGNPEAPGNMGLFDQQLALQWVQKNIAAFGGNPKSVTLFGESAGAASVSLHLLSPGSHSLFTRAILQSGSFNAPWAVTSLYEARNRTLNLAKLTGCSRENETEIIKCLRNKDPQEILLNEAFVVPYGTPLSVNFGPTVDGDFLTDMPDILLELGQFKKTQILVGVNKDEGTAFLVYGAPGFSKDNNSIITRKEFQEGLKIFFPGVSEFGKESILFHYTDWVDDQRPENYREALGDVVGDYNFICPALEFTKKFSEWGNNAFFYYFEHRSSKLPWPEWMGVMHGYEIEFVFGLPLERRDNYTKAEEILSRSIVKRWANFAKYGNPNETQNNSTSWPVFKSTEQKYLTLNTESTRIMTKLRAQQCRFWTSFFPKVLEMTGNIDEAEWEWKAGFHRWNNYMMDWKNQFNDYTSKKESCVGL
# Target: Cholinesterase (Homo sapiens, UniProt P06276)
# Test: Inhibition of BChE in human serum assessed as hydrolysis of butyrylthiocholine by Ellman's method
# Format: cell-free
# Procedure, shortened: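 Human serum BChE (0.44 U/mL solution) in 0.1 M phosphate buffer pH 8.0 with S-butyrylthiocholine iodide and DTNB. Absorbance at 410 nm followed kinetically for 4 min at 30 °C, at least four replicates. Inhibition % = 100 − 100·V/V_max, where V_max comes from blanks without inhibitor; one-sided t-test. IC50 obtained by non-linear regression of the dose–response, given as mean ± SEM.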
structure (smiles),measurement,value
CCN(C)C(=O)Oc1cccc([C@H](C)N(C)C)c1 [RIVASTIGMINE],IC50,170 nM
